Measurements as given in patent publication US20260042764A1, “COMPOSITIONS AND METHODS FOR INHIBITION OF KRAS” (TheRas, Inc., priority 2022, published 2026).

By UniProt entry, the sequences of proteins in these tests, tags left out. Residues count along the entry.
UniProt P01116, 1-169 isoform 2 limits assumed: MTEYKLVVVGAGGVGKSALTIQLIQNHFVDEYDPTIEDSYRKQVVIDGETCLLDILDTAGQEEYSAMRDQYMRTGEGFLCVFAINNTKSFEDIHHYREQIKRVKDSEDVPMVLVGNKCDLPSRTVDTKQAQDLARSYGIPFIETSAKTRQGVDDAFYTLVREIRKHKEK
UniProt P01116, 1-169 isoform 2 G12D limits assumed: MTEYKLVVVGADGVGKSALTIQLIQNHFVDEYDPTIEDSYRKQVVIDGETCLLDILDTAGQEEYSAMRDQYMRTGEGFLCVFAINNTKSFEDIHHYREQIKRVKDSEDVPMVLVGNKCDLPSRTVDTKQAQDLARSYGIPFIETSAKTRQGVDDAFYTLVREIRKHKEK
UniProt P01116, 1-169 isoform 2 G12V limits assumed: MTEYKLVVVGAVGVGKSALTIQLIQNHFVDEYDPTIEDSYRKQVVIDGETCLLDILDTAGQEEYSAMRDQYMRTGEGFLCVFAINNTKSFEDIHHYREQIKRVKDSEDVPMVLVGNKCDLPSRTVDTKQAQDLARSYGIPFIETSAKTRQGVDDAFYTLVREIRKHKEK
UniProt P01116, 2-169 isoform 2 G12D limits assumed: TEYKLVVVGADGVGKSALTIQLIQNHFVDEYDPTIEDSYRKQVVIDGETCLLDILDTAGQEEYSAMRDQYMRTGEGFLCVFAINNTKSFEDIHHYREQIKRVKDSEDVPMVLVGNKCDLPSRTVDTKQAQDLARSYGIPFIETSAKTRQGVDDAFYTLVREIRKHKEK

Key:
[1] = biological target: Avi-KRAS G12D (1-169) GppNHp/RAF1 RBD-3xFLAG (52-151) (Homo sapiens, UniProt P01116, G12D); assay: Raf1-KRAS G12D-GppNHP disruption HTRF assay (Biological Example 1); conditions: read-out: Raf1-GppNHp-KRAS G12D disruption; KRAS G12D, GppNHp-loaded; class symbols
[2] = biological target: Avi-KRAS G12V (1-169) GppNHp/RAF1 RBD-3xFLAG (52-151) (Homo sapiens, UniProt P01116, G12V); assay: Raf1-KRAS G12V-GppNHP disruption HTRF assay (Biological Example 1); conditions: read-out: Raf1-GppNHp-KRAS G12V disruption; KRAS G12V, GppNHp-loaded; class symbols
[3] = biological target: Avi-KRAS WT (1-169) GppNHp/RAF1 RBD-3xFLAG (52-151) (Homo sapiens, UniProt P01116); assay: Raf1-KRAS WT-GppNHP disruption HTRF assay (Biological Example 1); conditions: read-out: Raf1-GppNHp-KRAS WT disruption; KRAS WT, GppNHp-loaded; class symbols
[4] = biological target: Avi-KRAS G12D (2-169) GTP/RAF1 RBD-3xFLAG (51-131) (Homo sapiens, UniProt P01116, G12D); assay: Raf1-KRAS G12D-GTP disruption HTRF assay (Biological Example 3); conditions: read-out: Raf1-GTP-KRAS G12D disruption, GTP-loaded
Experimental: Biological Example 3: Disrupting RAS-Effector Binding HTRF Assay
A protein:protein interaction (PPI) Homogeneous Time Resolved Fluorescence (HTRF) assay was used to determine the effectiveness of compounds in disrupting KRAS protein and effector (RAF1) binding.
The HTRF assay used the following reagents and proteins: (i) 50 nM Avi-KRAS G12D (2-169) GTP/RAF1 RBD-3xFLAG (51-131): (ii) 50 nM Avi-KRAS G12C (2-169) GTP/RAF1 RBD-3xFLAG (51-131): (iii) 50 nM Avi-KRAS G12V (2-169) GTP/RAF1 RBD-3xFLAG (51-131); (iv) 50 nM Avi-KRAS WT (2-169) GTP/RAF1 RBD-3xFLAG (51-131); and (v) 75 nM 3xFLAG-RAF1 RBD (51-131)-Avi. The assay buffer included: 50 mM Tris pH 7.5 (Invitrogen, 15567-027), 100 mM NaCl (Sigma, S5150-IL), 5 mM MgCl2 (Sigma, 63069), 0.1% BSA (Sigma, A7030), 0.01% Tween 20 (Sigma, P7949), 10% DMSO (Cell Signaling, 12611). The bead buffer included: 50 mM Tris pH 7.5 (Invitrogen, 15567-027), 0.01% Tween 20 (Sigma, P7949). An assay volume of 20 μL was used in a 384 well plate-low volume format. Compound titration: 30-0.005 μM, 3x dilution series.
The HTRF assay employed the following protocol: […]
Plates were analyzed on an Envision plate reader using the following setting: Excitation 320 nm, Bandwidth 75 nm; Emission 615 nm, Bandwidth 85 nm; Gain 100%; Flashes 100; Lag 60 μs. […] Data was plotted and analyzed using Prism 8. […]

HPAC cells (KRAS G12D) = assay: Cell-based pERK HTRF assay in HPAC cells (Biological Example 5); conditions: read-out: HPAC pERK HTRF IC50
Experimental: (§1) Biological Example 5: Cell-based PERK HTRF assay in AsPC-1, SW1900, HPAC, Capan-2, RKN, H358, HCT116, KP-2, H1573, A549, MKN1, and HT1080 cells
(§2) The inhibition of ERK phosphorylation, as measured using the HTRF Advanced Phospho-ERK 1/2 (Thr202/Tyr204) Detection Assay kit (Perkin Elmer), was used to determine the effectiveness of test compounds in disrupting KRAS-driven protein/effector signaling in cells.
(§3) On day 1, cells were seeded into 96-well plates at 2.5×10^4 cells/well in 100 μL of complete growth media supplemented with 10% fetal bovine serum (FBS) and incubated at 37° C., in the presence of 5% CO2.
(§4) On day 2, cells were treated with compounds diluted in DMSO at 0.25% final DMSO concentration. Compounds were dosed in a 9-point concentration curve with three-fold dilution between concentrations. Cells were incubated in the presence of compound for two hours at 37° C. […]
(§5) Following this incubation period, plates were centrifuged at 500×g for one minute and analyzed on a CLARIOstar plate reader. Data was imported into Microsoft Excel and the signal from the 665 nm channel was divided by the signal from the 620 nm channel. % pERK was calculated as: […]
(§6) Data was imported to the Prism software package (Graphpad) and EC50 values were calculated using the log (inhibitor) vs, response—variable slopc (Four parameters) model.

[5] = tested on: Capan-2 cells (KRAS G12V); assay: Cell-based pERK HTRF assay in Capan-2 cells (Biological Example 5); conditions: read-out: Capan-2 pERK HTRF IC50; Capan-2 (KRAS G12V) cells
Experimental: as §1, §2, §3, §4, §5, §6

Measured: IC50

CCN(c1nc(OC[C@@]23CCCN2C[C@H](F)C3)nc2c(F)c(-c3ccc(F)c4sc(N)c(C#N)c34)c(C(F)(F)F)cc12)[C@H]1CCN(C(=O)OC2COC2)C1
< 100 nM: all assays above
